According to patent US20060094649A1, “Hla-a1,-a2,-a3,-a24,-b7, and-b44 tumor associated antigen peptides and compositions” (priority 2002, published 2006):

Tested on: HLA-B44 supertype molecules
Assay: HLA-B44 supertype cross-binding
Design: species or system human
Details: number of the six B44 supertype alleles bound

| SMILES | Degeneracy |
| --- | --- |
| CC(C)C[C@H](NC(=O)CNC(=O)[C@H](CCC(=O)O)NC(=O)CNC(=O)[C@@H](NC(=O)[C@H](CS)NC(=O)[C@H](CCC(=O)O)NC(=O)[C@H](CC(=O)O)NC(=O)[C@H](CCC(=O)O)NC(=O)[C@@H]1CCCN1)C(C)C)C(=O)O [compound 512] | 3 |
| CC[C@H](C)[C@H](NC(=O)[C@H](CCC(=O)O)NC(=O)[C@H](CCCCN)NC(=O)[C@H](CC(N)=O)NC(=O)[C@H](C)NC(=O)[C@H](CCCCN)NC(=O)[C@@H]1CCCN1C(=O)[C@H](CO)NC(=O)[C@@H](NC(=O)[C@H](CC(N)=O)NC(=O)[C@H](CCC(=O)O)NC(=O)[C@@H](N)CCCNC(=N)N)[C@@H](C)O)C(=O)N[C@@H](CC(C)C)C(=O)O [compound 515] | 3 |
| CC[C@H](C)[C@H](NC(=O)[C@H](CCC(=O)O)NC(=O)[C@@H](N)CCCNC(=N)N)C(=O)N1CCC[C@H]1C(=O)N[C@@H](CC(=O)O)C(=O)N[C@@H](CC(C)C)C(=O)N[C@@H](CC(C)C)C(=O)N[C@@H](CCC(=O)O)C(=O)N[C@@H](CCCCN)C(=O)NCC(=O)N[C@@H](CCC(=O)O)C(=O)N[C@@H](CCCNC(=N)N)C(=O)N[C@@H](CC(C)C)C(=O)O [compound 520] | 3 |
| CC[C@H](C)[C@H](NC(=O)[C@@H]1CCCN1C(=O)[C@@H]1CCCN1C(=O)[C@H](CCC(N)=O)NC(=O)[C@@H]1CCCN1C(=O)[C@H](CC(C)C)NC(=O)[C@H](CCCNC(=N)N)NC(=O)[C@H](CCC(=O)O)NC(=O)CN)C(=O)N[C@@H](CS)C(=O)N[C@H](C(=O)O)[C@@H](C)O [compound 521] | 3 |
| CC(C)C[C@H](NC(=O)[C@H](CCC(=O)O)NC(=O)[C@H](CCCNC(=N)N)NC(=O)[C@H](Cc1ccccc1)NC(=O)[C@H](CCCNC(=N)N)NC(=O)[C@@H]1CCCN1C(=O)[C@H](CCCNC(=N)N)NC(=O)[C@H](CS)NC(=O)[C@H](CCC(=O)O)NC(=O)[C@@H](N)CO)C(=O)N[C@H](C(=O)O)C(C)C [compound 522] | 3 |

Continued, values first:

| Degeneracy | SMILES |
| --- | --- |
| 3 | CC[C@H](C)[C@H](NC(=O)[C@H](CCC(=O)O)NC(=O)[C@H](CCC(=O)O)NC(=O)[C@H](CC(C)C)NC(=O)[C@@H](NC(=O)[C@H](CCC(=O)O)NC(=O)[C@@H](N)Cc1ccccc1)[C@@H](C)O)C(=O)N[C@H](C(=O)NCC(=O)N[C@@H](Cc1ccc(O)cc1)C(=O)N[C@@H](CC(C)C)C(=O)O)[C@@H](C)O [compound 510] |
| 3 | CC(C)C[C@H](NC(=O)CNC(=O)[C@H](CCC(=O)O)NC(=O)CNC(=O)[C@@H](NC(=O)[C@H](CS)NC(=O)[C@H](CCC(=O)O)NC(=O)[C@@H](N)CC(=O)O)C(C)C)C(=O)O [compound 513] |
| 3 | CC[C@H](C)[C@H](NC(=O)[C@H](CCC(=O)O)NC(=O)[C@@H](N)CCCCN)C(=O)N[C@@H](CC(C)C)C(=O)N[C@@H](CC(=O)O)C(=O)N[C@@H](CCC(=O)O)C(=O)N[C@@H](C)C(=O)N[C@@H](Cc1ccc(O)cc1)C(=O)O [compound 516] |
| 3 | CSCC[C@H](NC(=O)[C@@H](NC(=O)[C@H](Cc1ccc(O)cc1)NC(=O)[C@H](C)NC(=O)[C@H](CCC(=O)O)NC(=O)[C@@H](N)CC(=O)O)C(C)C)C(=O)N[C@@H](C)C(=O)NCC(=O)N[C@H](C(=O)O)C(C)C [compound 517] |
| 3 | CC[C@H](C)[C@H](NC(=O)[C@H](CO)NC(=O)[C@H](CCC(=O)O)NC(=O)[C@@H](N)CC(C)C)C(=O)N[C@@H](CC(C)C)C(=O)N[C@@H](CCCNC(=N)N)C(=O)N[C@@H](CCCNC(=N)N)C(=O)N[C@@H](CCCNC(=N)N)C(=O)N[C@@H](Cc1ccccc1)C(=O)O [compound 518] |
| 3 | CSCC[C@H](NC(=O)[C@H](CC(C)C)NC(=O)[C@H](CCC(=O)O)NC(=O)[C@@H](N)Cc1c[nH]c2ccccc12)C(=O)N[C@H](C(=O)N[C@@H](Cc1ccccc1)C(=O)NCC(=O)N[C@@H](C)C(=O)N[C@@H](CCCCN)C(=O)N1CCC[C@H]1C(=O)N[C@@H](Cc1ccc(O)cc1)C(=O)O)[C@@H](C)O [compound 519] |
